{"source": "patent US20160272937A1", "about": "“METHODS OF GENERATING INTERMEDIATE MESODERM CELLS FROM HUMAN PLURIPOTENT STEM CELLS” (THE BRIGHAM AND WOMEN'S HOSPITAL, INC., priority 2013, published 2016)", "molecules": {"B1": {"name": "BMP-2: candidate growth factor screened for PAX2 induction (protein, UniProt P12643 283-396, looked up)", "Bone morphogenetic protein 2": "QAKHKQRKRLKSSCKRHPLYVDFSDVGWNDWIVAPPGYHAFYCHGECPFPLADHLNSTNHAIVQTLVNSVNSKIPKACCVPTELSAISMLYLDENEKVVLKNYQDMVVEGCGCR"}}, "tested_on": "CHIR-induced hPSCs", "test": "Growth factor screen for PAX2 induction in CHIR-induced mesendodermal cells (immunostaining)", "format": "cell-based, human", "conditions": "CHIR 24 hours then low doses of factor, day 4", "procedure": "For immunofluorescence studies, cultures are washed once with PBS (Invitrogen) and fixed in 4% paraformaldehyde for 15 min at room temperature (RT). Fixed cells are then washed three times in PBS and incubated in blocking buffer (0.3% Triton X-100 (Fisher Scientific) and 5% normal donkey serum (EMD Millipore) in PBS) for 1 hour at RT.\nThe cells are then incubated with primary antibody overnight at 4° C. or for 2 hours at RT in antibody dilution buffer (0.3% Triton X-100 and 1% BSA (Roche) in PBS). Cells are then washed three times in PBS and incubated with Alexa Fluor 488-, 555-, or 647-conjugated secondary antibodies (1:500) (Molecular Probes) in antibody dilution buffer for 1 hour at RT. For immunostaining with Biotinylated Lotus Tetragonolobus Lectin (LTL, Vector Labs), a Streptavidin/Biotin Blocking Kit (Vector Labs) and Alexa Fluor 488- or 647-conjugated Streptavidin (Molecular Probes) were used according to manufacturer's instructions.\nNuclei can be counterstained with DAPI (Sigma). A list of primary antibodies can be found in Table 1. Immunofluorescence is visualized using an inverted fluorescence microscope (Nikon Eclipse Ti, Tokyo, Japan). Quantification is performed by counting a minimum of five random fields at 10× magnification. […]"}
{"molecule": "B1", "values": [{"measurement": "PAX2 expression compared to vehicle control", "result": "modest increases"}]}
